This test has as its system 251 yitJ RNA. Format: binding, B. subtilis.

As to `CSCC[C@H](N)C(=O)O` [methionine], the “structural modulation of the RNA” value is reported as “no structural modulation was evident”.

These data come from patent publication US8440810B2, “Riboswitches, methods for their use, and compositions for use with riboswitches” (Yale University, priority 2002, dated 2013).
